This is an account of results in patent US20240150321A1, “PYRAZOLYLSULFONAMIDE COMPOUNDS AND THEIR USE IN THERAPY” (HOTSPOT THERAPEUTICS, INC., priority 2022, published 2024).

For this test, the system named is NF-kB reporter in Jurkat cells. Kind of test: NF-kB reporter assay in Jurkat cells stimulated with aCD3/aCD28/PMA. Particulars: read-out: NF-kB Reporter Assay IC50, 1 hr compound pre-incubation, aCD3/aCD28/PMA stimulation 4 hr, One-Glo readout. It is filed as cell-based. As to the method:
Jurkat cells were maintained in complete RPMI 1640 media supplemented with 10% FBS. Prior to the assay, 120 nL of the serial diluted compound was added in each well of 384-well flat bottom white plate (Corning #3570) by using liquid handler Echo550. Jurkat cells were harvested by centrifugation at 120 g for 10 min and resuspended in fresh RPMI 1640 media without serum. […] (25,000 cells) were seeded in each well of 384-well plate containing compound. After 1 hr incubation at 37° C. in a 5% CO2 incubator, […] of diluted aCD3/aCD28/PMA (final concentration at […] and […], respectively) in RPMI 1640 without serum were added to each well. After incubation at 37° C. in 5% CO2 for 4 hr, […] of One-Glo reagent (Promega #E6120) was added into each well. The plate was left at room temperature for 5 min and the signal was measured on EnVision (PerkinElmer).
Compounds in which an IC50 was not measured are designated as “N/A”.

A value given as a limit tells only on which side of the number the result lay.

Take `COc1ccc2cnn(C)c2c1NS(=O)(=O)c1cnn(-c2cc(C(C)OC)ccn2)c1` (single isomer, unassigned): the IC50 is < 400 nM.
